# Data taken from PubChem BioAssay AID1845 (The Scripps Research Institute Molecular Screening Center, 2009).
# The entries are a selection whose mix differs from that of the whole data set. Activity calls are given as the source filed them. Cut-off read from the data, not from the text of the source: active = inhibition above about 37%; inactive = the rest.
# Test: DNA intercalator displacement agents – biochemical, FID fluorescence, artefact control for HCV NS3 helicase inhibitor project, primary screen (AID 1845);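 note: 0% = vehicle and 100% = reference compound; higher means more ethidium bromide displaced from hairpin DNA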
# Settings: DNA fluorescent intercalator displacement, at 7.9 µM, active compounds read high
row,Structure (SMILES),inhibition
1,COc1ccccc1OP(=O)(Nc1ccc(C)cn1)Oc1ccccc1OC,inactive: -3.85%
2,Cc1ccc(OP(=O)(Nc2nccs2)Oc2ccc(C)cc2)cc1,inactive: -30.6%
3,Cc1ccc(N/C(=N/P(=O)(N2CCOCC2)N2CCOCC2)N2CCOCC2)cc1,inactive: 0.96%
4,NC(=O)c1cc([N+](=O)[O-])cc([N+](=O)[O-])c1N,inactive: -6.51%
5,Oc1ccccc1CNc1ccccn1,inactive: -0.39%
6,Cc1c2non([O-])c-2c(C)[n+](=O)[n+]1[O-],inactive: -2.65%
7,O=C(NC(Sc1ccncn1)C(Cl)(Cl)Cl)c1ccccc1 (stereo not drawn),inactive: -6.8%
8,CC(C)CC(=O)NC(Sc1ccc(Cl)cc1)C(Cl)(Cl)Cl (stereo not drawn),inactive: -5.67%
9,Nc1cc(N)c2nonc2c1[N+](=O)[O-],inactive: 2.51%
10,CC(C)(C)C(=O)NC(Sc1ccccc1)C(Cl)(Cl)Cl (stereo not drawn),inactive: -9.42%
11,O=P1(Nc2nc3ccc(Cl)cc3s2)COc2ccccc2O1 (stereo not drawn),inactive: -0.04%
12,CCOc1ccc(C2=NCC(CBr)S2)cc1 (stereo not drawn),inactive: 7.68%
13,CC(=O)Nc1ccc([As](=O)(O)O)c(O)c1,inactive: 2.01%
14,CC(=O)Nc1ccc(Oc2c([N+](=O)[O-])cc([N+](=O)[O-])cc2[N+](=O)[O-])cc1,inactive: -0.3%
15,CC(=O)c1ccc(N2CC2c2ccncc2)cc1 (stereo not drawn),inactive: -5.53%
16,c1ccc(-c2nn[nH]n2)c(-c2nn[nH]n2)c1,inactive: 3.72%
17,Cc1ccc(NP(=O)(Oc2cccc(C)c2)Oc2cccc(C)c2)nc1,inactive: 5.9%
18,CCOC(=O)NC(Sc1ccccc1)C(Cl)(Cl)Cl (stereo not drawn),inactive: 1.54%
19,O=C(NC1CCS(=O)(=O)C1)NP(=S)(Oc1ccccc1)Oc1ccccc1 (stereo not drawn),inactive: 1.3%
20,CCNC(=S)/N=C(\N)N[N+](=O)[O-],inactive: -1.35%
21,Cc1ccccc1OP(=O)(Nc1ccccn1)Oc1ccccc1C,inactive: -30.9%
22,CN(C)C(=O)Oc1noc2ccccc12,inactive: -5.5%

row,Structure (SMILES),inhibition
1,O=c1c2cc([N+](=O)[O-])ccc2[nH]c2c([N+](=O)[O-])cc([N+](=O)[O-])cc12,inactive: 17.5%
2,O=C(OC1CN2CCC1CC2)c1ccccc1 (stereo not drawn),inactive: 2.36%
3,CCC(=O)N1C2C3N(C(=O)CC)C1C1N(C(=O)CC)C(C(N1C(=O)CC)N3C(=O)CC)N2C(=O)CC,inactive: -3.15%
4,COC(=O)c1cc2c(s1)N=C(c1ccccc1)N(C)P2(=O)N1CCOCC1 (stereo not drawn),inactive: -5.69%
5,CC(=O)NC(SC(=S)N(CC(C)C)CC(C)C)C(Cl)(Cl)Cl (stereo not drawn),inactive: -7.27%
6,Cc1ccc(OP(=O)(Nc2ccccn2)Oc2ccc(C)cc2)cc1,inactive: -28.3%
7,O=P(Nc1nc2ccccc2s1)(c1ccccc1)c1ccccc1,inactive: -16.8%
8,CN(C)C1(CNC(=O)c2ccc(Cl)c(S(N)(=O)=O)c2)CCCCC1,inactive: -4.52%
9,O=P(Nc1ccccn1)(c1ccc(Br)cc1)c1ccc(Br)cc1,inactive: -11.6%
10,O=C(OC1CN2CCC1CC2)c1cccc(Cl)c1 (stereo not drawn),inactive: 6.78%
11,Nc1ccc([As](=O)(O)c2ccc([N+](=O)[O-])cc2)cc1,inactive: -3.93%
12,C(Cc1nn[nH]n1)Cc1nn[nH]n1,inactive: 3.15%
13,O=[As](O)(c1ccccc1)c1ccc(O)cc1,inactive: -1.24%
14,CC(=O)NC(SC(=S)N(C)C)C(Cl)(Cl)Cl (stereo not drawn),inactive: 0.94%
15,O=[N+]([O-])c1ncn(CCn2cnc([N+](=O)[O-])n2)n1,inactive: -0.72%
16,O=[N+]([O-])c1ccc(O)c(/C=N/Nc2ccc([N+](=O)[O-])cc2[N+](=O)[O-])c1,inactive: 6.38%
17,c1nnnn1CCn1cnnn1,inactive: 2.42%
18,O=P(Nc1nccs1)(c1ccccc1)c1ccccc1,inactive: -10.5%
19,CC(C)C(=O)NC(Sc1ccccc1)C(Cl)(Cl)Cl (stereo not drawn),inactive: -4.13%
20,Clc1n[nH]nc1-c1nn[nH][15n]1,inactive: 2.85%
21,CC(C)(C)C(=O)NC(Sc1ncccn1)C(Cl)(Cl)Cl (stereo not drawn),inactive: -2.15%
22,CCC1=CC2Cc3nc4ccc(Cl)cc4c(N)c3C(C1)C2 (stereo not drawn),inactive: 6.59%

row,Structure (SMILES),inhibition
1,O=P1(Nc2ccccn2)COc2ccccc2OC1,inactive: -2.43%
2,CCOP(=O)(NC(=NC(C)c1ccccc1)NC(C)c1ccccc1)OCC (stereo not drawn),inactive: -52.4%
3,CCOP(=O)(Nc1ccc(C)cn1)OCC,inactive: -6.61%
4,CN(C(=O)Cc1ccc(Cl)c(Cl)c1)[C@@H]1CCCC[C@H]1N1CCCC1,inactive: 10.3%
5,CC(C)/C=N\N=C(\N)N[N+](=O)[O-],inactive: -1.62%
6,O=[As](O)(c1ccccc1Br)c1ccccc1Br,inactive: -0.69%
7,CC1(CBr)Cn2c(nc3ccccc3c2=O)S1 (stereo not drawn),inactive: 1.15%
8,CN(C)C1(CNC(=O)c2ccc(S(C)(=O)=O)cc2)CCCCC1,inactive: 5.3%
9,O=C(/C=C/c1ccccc1)OC1CN2CCC1CC2 (stereo not drawn),inactive: 7.18%
10,Cc1nn(-c2ccccc2)c2c1P(=O)(N1CCOCC1)N(C)C(c1ccccc1)=N2 (stereo not drawn),inactive: -14.1%
11,Cc1ccc(C(=O)OC2CN3CCC2CC3)cc1 (stereo not drawn),inactive: -4.09%
12,CC1CCC(C(C)C)C(OP(=O)(Nc2ccccn2)c2ccccc2)C1 (stereo not drawn),inactive: -34.9%
13,Nc1cccc([As](=O)(O)c2ccccc2)c1,inactive: -0.71%
14,O=P1(Nc2ccc(Br)cn2)COc2ccccc2OC1,inactive: -10.3%
15,Cc1ccc(OCC(=O)OC2CN3CCC2CC3)cc1 (stereo not drawn),inactive: 1.4%
16,O=[As](O)(c1cccs1)c1cccs1,inactive: -0.47%
17,O=P1(Nc2ncccn2)COc2ccccc2OC1,inactive: 5.46%
18,O=C(O)COc1ccc([As](=O)(O)O)cc1[N+](=O)[O-],inactive: -0.36%
19,Nc1ccccc1[As](=O)(O)c1ccccc1,inactive: -2.5%
20,CCOP1(=S)c2c(C)nn(CCC#N)c2N=C(c2ccccc2F)N1C (stereo not drawn),inactive: -13.5%
21,O=P(Nc1nccs1)(c1ccccc1)c1nc2ccccc2s1 (stereo not drawn),inactive: -3.17%
22,O=P(Nc1nccs1)(Oc1ccccc1)Oc1ccccc1,inactive: -12.2%

row,Structure (SMILES),inhibition
1,CS(=O)(=O)c1cc([N+](=O)[O-])c2no[n+]([O-])c2c1,inactive: 1.89%
2,CCOP1(=S)c2c(C)nn(CCC#N)c2N=C(c2ccc(F)cc2)N1C (stereo not drawn),inactive: -16.2%
3,O=[N+]([O-])c1ccc2c(c1)nnn2O,inactive: 1.38%
4,O=[As](O)(c1cccc(O)c1)c1cccc(O)c1,inactive: 1.03%
5,Cc1cccc(OCC(=O)OC2CN3CCC2CC3)c1 (stereo not drawn),inactive: 1.68%
6,O=C(OC1CN2CCC1CC2)c1ccc(Cl)cc1 (stereo not drawn),inactive: 3.79%
7,COc1cc(C(=O)NCC2(N3CCOCC3)CCCCC2)cc(Cl)c1OC(C)C,inactive: 6.14%
8,O=[As](O)(O)c1cccnc1,inactive: 0.65%
9,CS(=O)(=O)c1ccc(Cl)c(NC(=O)COC(=O)C(O)(c2ccccc2)c2ccccc2)c1,inactive: -40.7%
10,COc1cc(C2NCCC3(OCCO3)C2(C)C)cc(OC)c1OC (stereo not drawn),inactive: 13%
11,CCOP(=O)(Nc1cccc2ccccc12)OCC,inactive: -7.24%
12,Cc1ccc(NCCc2c([N+](=O)[O-])cc([N+](=O)[O-])cc2[N+](=O)[O-])cc1,inactive: 0.61%
13,Nc1cccc2c([As](=O)(O)O)cccc12,inactive: -17.7%
14,CCCOP(=S)(Nc1nc(N)cc(=O)[nH]1)OCCC,inactive: -15.4%
15,COc1ccc2nc(NP(=O)(c3ccccc3)c3ccccc3)sc2c1,inactive: -15.9%
16,COc1cc(I)ccc1[As](=O)(O)O,inactive: 1.4%
17,Cc1c2c(nc3ccccc13)SC(C(Cl)Cl)C2 (stereo not drawn),inactive: -4.41%
18,O=C(OC1CN2CCC1CC2)C12CC3CC(CC(C3)C1)C2 (stereo not drawn),inactive: 25.8%
19,Cc1cc(=O)[nH]c(N[N+](=O)[O-])n1,inactive: 0.64%
20,COc1ccc(N/C(=N/P(=O)(N2CCOCC2)N2CCOCC2)N2CCOCC2)cc1,inactive: 2.65%
21,Cc1ccc(OP(=O)(Nc2ccc([N+](=O)[O-])cn2)Oc2ccc(C)cc2)cc1,inactive: -2.63%
22,Cc1ccc2nc3c(c(C)c2c1)CC(C(Cl)Cl)S3 (stereo not drawn),inactive: -2.72%

row,Structure (SMILES),inhibition
1,C[As](=O)(O)c1cccc(C(=O)O)c1,inactive: 1.17%
2,O=[As](O)(c1ccc(O)cc1)c1ccccc1O,inactive: -5.69%
3,CCN(CC)C(=S)SC(NC=O)C(Cl)(Cl)Cl (stereo not drawn),inactive: 2.14%
4,CC(C)NC(=O)NP(=O)(Oc1ccccc1)Oc1ccccc1,inactive: -1.55%
5,O=[N+]([O-])c1cc([N+](=O)[O-])c(-c2ccn[nH]2)s1,inactive: 3.3%
6,ClCCSc1nnc(-c2cccnc2)o1,inactive: -0.96%
7,CC(C)c1ccc(OP(=O)(Nc2ccccn2)Oc2ccccc2F)cc1 (stereo not drawn),inactive: -10.6%
8,CCCCOc1ccc(C(=O)NCC2(N3CCCCC3)CCCCC2)cc1OC,inactive: 1.73%
9,Cc1cc(SC(NC(=O)c2ccccc2)C(Cl)(Cl)Cl)nc(C(C)C)n1 (stereo not drawn),inactive: -9.78%
10,CCOC(=O)Nc1ccc([As](=O)(O)O)c(O)c1,inactive: 4.62%
11,Cc1cc(SC(NC=O)C(Cl)(Cl)Cl)ncn1 (stereo not drawn),inactive: -1.74%
12,O=P(Nc1ccccn1)(c1cccc2ccccc12)c1cccc2ccccc12,inactive: -6.76%
13,O=[N+]([O-])c1ccc(Nc2ccc(Oc3ccc([N+](=O)[O-])cc3[N+](=O)[O-])cc2)c([N+](=O)[O-])c1,inactive: -4.12%
14,CCOC(=O)Nc1cccc([As](=O)(O)O)c1,inactive: -1.22%
15,O=C(COc1ccccc1)OC1CN2CCC1CC2 (stereo not drawn),inactive: 0.98%
16,O=C(Nc1ccncc1[N+](=O)[O-])c1ccc([N+](=O)[O-])cc1[N+](=O)[O-],inactive: -3.62%
17,COP1(=S)c2c(C)nn(CCC#N)c2N=C(c2ccc(F)cc2)N1C (stereo not drawn),inactive: -8.21%
18,CCC(C)N(CC(C)C)C(=S)SC(NC(C)=O)C(Cl)(Cl)Cl (stereo not drawn),inactive: -0.52%
19,O=C(OC1CN2CCC1CC2)c1cccc([N+](=O)[O-])c1 (stereo not drawn),inactive: 0.68%
20,CCOC(=O)c1ccc(NC(=O)C(C)(CCl)SC)cc1 (stereo not drawn),inactive: -4.56%
